Assay results reported in article PMC5015024 (Scientific Reports, 2016).

By UniProt entry, the sequences of proteins in these tests, tags left out. Residues count along the entry.
UniProt P01375, 77-233: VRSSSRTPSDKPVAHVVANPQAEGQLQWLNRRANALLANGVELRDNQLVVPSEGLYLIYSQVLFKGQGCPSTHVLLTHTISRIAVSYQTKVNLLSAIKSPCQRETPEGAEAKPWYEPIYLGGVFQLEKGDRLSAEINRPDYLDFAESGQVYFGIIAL

B1: infliximab (Remicade), full-length chimeric IgG1 kappa antibody (antibody, V domains shown)
VH: EVKLEESGGGLVQPGGSMKLSCVASGFIFSNHWMNWVRQSPEKGLEWVAEIRSKSINSATHYAESVKGRFTISRDDSKSAVYLQMTDLRTEDTGVYYCSRNYYGSTYDYWGQGTTLTVSS
VL: DILLTQSPAILSVSPGERVSFSCRASQFVGSSIHWYQQRTNGSPRLLIKYASESMSGIPSRFSGSGSGTDFTLSINTVESEDIADYYCQQSHSWPFTFGSGTNLEVK
notes: heavy chain of infliximab, chimeric IgG1; kappa light chain of infliximab; IgG1 kappa; the constant part beyond the Fab is not in the PDB entry; also called IFX; source: bought: Remicade, MSD
B2: DyLight-488 labeled infliximab Fab' fragment (Fab, V domains shown)
VH: EVKLEESGGGLVQPGGSMKLSCVASGFIFSNHWMNWVRQSPEKGLEWVAEIRSKSINSATHYAESVKGRFTISRDDSKSAVYLQMTDLRTEDTGVYYCSRNYYGSTYDYWGQGTTLTVSS
VL: DILLTQSPAILSVSPGERVSFSCRASQFVGSSIHWYQQRTNGSPRLLIKYASESMSGIPSRFSGSGSGTDFTLSINTVESEDIADYYCQQSHSWPFTFGSGTNLEVK
notes: heavy chain part of the Fab' of infliximab (as the heavy chain of m7, cut by pepsin); as the light chain of m7; also called infliximab Fab'-488; Fab'-488; source: from Remicade (MSD) with pepsin, then reduction and alkylation; labeled with DyLight 488

Columns and labels:
[1] = target: T1, Recombinant human tumor necrosis factor (TNF), unlabeled (human, UniProt P01375); experiment: SPR; Biacore T-200, 25 °C; TNF inhibitor captured (ca. 100 RU) on mouse anti-human IgG (MH16-1) immobilised on a CM5 chip; TNF 50-300 ng/mL in PBS with 0.05% polysorbate-20 flowed at 30 uL/min, 600 s association, 600 s dissociation; constants per binding site on TNF (3 for the antibodies, 1:1 for etanercept); settings: both partners purified
T1 construct: Tumor necrosis factor, human, recombinant; also called soluble TNF; trimeric TNF; source: bought: Life Technologies and Active Bioscience (lyophilized powder, reconstituted)

[2] = target: T1, Recombinant human tumor necrosis factor …; experiment: SEC; fluid phase, fluorescence-assisted HP-SEC; serial four-fold dilutions of TNF (0.01-500 ng/ml) with a fixed 50-200 pg/ml of Fab'-488 in PBS with 1 mg/mL IVIG, 25 °C; free Fab'-488 against the molar concentration of binding sites on TNF, 1:1 binding model; settings: both partners purified

Binder	Kd [1]	koff [1]	kon [1]	Kd [2]
B1	0.138 nM	0.00024 s⁻¹	1.7e+06 M⁻¹ s⁻¹	
B2				0.123 nM
